The values below come from ChEMBL document CHEMBL1133645, “(S)-4-Methyl-2-(methylamino)pentanoic acid [4, 4-bis(4-fluorophenyl)butyl]amide hydrochloride, a novel calcium channel antagonist, is efficacious in several animal models of pain” (J Med Chem, 2000).

Protein sequences, listed by entry. Tags and fused reporters are not part of them.
UniProt Q00975, whole entry: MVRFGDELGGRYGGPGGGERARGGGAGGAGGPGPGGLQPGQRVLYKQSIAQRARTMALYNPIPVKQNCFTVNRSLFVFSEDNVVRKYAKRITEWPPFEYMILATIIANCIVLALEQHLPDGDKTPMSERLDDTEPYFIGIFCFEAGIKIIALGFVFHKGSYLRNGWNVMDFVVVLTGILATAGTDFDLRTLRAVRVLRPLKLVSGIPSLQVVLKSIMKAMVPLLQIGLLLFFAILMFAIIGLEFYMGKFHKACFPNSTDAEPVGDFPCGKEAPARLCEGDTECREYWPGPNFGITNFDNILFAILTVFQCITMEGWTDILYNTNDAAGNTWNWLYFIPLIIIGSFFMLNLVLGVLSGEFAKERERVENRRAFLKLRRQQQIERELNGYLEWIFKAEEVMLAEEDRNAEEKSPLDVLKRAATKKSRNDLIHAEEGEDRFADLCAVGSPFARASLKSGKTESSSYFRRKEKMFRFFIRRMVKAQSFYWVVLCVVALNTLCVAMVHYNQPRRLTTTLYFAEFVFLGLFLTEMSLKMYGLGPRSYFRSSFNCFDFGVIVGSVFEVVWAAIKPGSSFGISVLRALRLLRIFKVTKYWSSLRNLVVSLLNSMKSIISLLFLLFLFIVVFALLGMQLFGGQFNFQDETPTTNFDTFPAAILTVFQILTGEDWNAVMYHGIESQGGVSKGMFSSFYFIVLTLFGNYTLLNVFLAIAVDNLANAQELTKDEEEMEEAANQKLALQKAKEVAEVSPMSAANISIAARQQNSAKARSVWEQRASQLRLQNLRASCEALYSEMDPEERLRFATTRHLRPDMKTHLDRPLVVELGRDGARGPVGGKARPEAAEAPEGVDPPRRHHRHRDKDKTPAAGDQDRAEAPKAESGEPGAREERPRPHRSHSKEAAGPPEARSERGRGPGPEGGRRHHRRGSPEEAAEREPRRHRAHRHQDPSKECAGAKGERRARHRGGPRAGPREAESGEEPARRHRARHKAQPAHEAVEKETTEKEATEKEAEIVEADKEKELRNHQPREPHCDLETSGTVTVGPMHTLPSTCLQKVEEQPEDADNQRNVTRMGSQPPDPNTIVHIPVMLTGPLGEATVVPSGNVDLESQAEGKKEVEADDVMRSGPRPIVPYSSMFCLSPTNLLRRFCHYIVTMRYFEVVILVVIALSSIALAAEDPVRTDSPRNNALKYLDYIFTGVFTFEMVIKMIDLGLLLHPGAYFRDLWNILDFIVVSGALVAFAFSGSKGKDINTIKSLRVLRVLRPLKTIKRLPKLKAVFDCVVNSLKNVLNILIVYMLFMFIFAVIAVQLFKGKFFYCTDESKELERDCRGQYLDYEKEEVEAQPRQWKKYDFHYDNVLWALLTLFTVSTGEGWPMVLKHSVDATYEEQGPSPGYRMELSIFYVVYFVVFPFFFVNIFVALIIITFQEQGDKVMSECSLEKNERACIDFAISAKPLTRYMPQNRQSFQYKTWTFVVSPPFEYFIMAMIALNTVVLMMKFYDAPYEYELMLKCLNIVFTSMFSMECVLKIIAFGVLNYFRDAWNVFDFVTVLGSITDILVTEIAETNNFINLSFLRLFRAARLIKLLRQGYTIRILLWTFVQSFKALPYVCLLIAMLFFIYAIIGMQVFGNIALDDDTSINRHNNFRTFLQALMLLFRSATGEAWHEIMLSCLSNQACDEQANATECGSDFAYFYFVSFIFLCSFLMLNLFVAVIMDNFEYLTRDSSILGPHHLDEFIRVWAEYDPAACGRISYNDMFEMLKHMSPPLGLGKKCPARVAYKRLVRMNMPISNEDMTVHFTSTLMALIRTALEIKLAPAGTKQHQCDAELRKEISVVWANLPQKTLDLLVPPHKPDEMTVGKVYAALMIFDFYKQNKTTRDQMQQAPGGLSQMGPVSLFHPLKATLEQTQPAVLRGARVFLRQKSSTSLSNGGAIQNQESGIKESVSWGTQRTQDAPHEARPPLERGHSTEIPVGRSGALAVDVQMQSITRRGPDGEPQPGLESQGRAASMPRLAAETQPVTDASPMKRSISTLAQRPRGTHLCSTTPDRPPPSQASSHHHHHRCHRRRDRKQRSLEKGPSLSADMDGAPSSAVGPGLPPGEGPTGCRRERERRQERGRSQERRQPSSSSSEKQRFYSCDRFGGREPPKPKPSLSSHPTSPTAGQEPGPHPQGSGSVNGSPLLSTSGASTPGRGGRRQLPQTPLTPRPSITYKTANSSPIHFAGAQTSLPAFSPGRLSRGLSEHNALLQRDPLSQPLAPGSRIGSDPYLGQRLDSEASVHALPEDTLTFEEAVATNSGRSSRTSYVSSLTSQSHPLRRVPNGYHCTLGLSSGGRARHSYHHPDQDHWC

By IC50 is commonly meant the midpoint of a concentration-inhibition curve.

The experiment has as its target Voltage-dependent N-type calcium channel subunit alpha-1B (Homo sapiens, UniProt Q00975). In words: Inhibition of N-type calcium channel in IMR32 human neuroblastoma cells using fluorescent [Ca2+] indicator Indo-1 in the presence of 5 uM nitrendipine (L-type [Ca2+] channel inhibitor). It is filed as functional.

For the compound `CN[C@@H](CC(C)C)C(=O)NCCCC(c1ccc(F)cc1)c1ccc(F)cc1.Cl`, the IC50 worked out at 1.5 µM.
